Values quoted from earlier work, collected in patent publication US10449216B2, “Modulating drug effects against metabotropic glutamate receptor with extracellular calcium” (GEORGIA STATE UNIVERSITY RESEARCH FOUNDATION, INC., priority 2013, dated 2019).

Protein sequences, listed by entry. Tags and fused reporters are not part of them. Residues count along the entry.
UniProt Q13255, 19-1194 limits assumed: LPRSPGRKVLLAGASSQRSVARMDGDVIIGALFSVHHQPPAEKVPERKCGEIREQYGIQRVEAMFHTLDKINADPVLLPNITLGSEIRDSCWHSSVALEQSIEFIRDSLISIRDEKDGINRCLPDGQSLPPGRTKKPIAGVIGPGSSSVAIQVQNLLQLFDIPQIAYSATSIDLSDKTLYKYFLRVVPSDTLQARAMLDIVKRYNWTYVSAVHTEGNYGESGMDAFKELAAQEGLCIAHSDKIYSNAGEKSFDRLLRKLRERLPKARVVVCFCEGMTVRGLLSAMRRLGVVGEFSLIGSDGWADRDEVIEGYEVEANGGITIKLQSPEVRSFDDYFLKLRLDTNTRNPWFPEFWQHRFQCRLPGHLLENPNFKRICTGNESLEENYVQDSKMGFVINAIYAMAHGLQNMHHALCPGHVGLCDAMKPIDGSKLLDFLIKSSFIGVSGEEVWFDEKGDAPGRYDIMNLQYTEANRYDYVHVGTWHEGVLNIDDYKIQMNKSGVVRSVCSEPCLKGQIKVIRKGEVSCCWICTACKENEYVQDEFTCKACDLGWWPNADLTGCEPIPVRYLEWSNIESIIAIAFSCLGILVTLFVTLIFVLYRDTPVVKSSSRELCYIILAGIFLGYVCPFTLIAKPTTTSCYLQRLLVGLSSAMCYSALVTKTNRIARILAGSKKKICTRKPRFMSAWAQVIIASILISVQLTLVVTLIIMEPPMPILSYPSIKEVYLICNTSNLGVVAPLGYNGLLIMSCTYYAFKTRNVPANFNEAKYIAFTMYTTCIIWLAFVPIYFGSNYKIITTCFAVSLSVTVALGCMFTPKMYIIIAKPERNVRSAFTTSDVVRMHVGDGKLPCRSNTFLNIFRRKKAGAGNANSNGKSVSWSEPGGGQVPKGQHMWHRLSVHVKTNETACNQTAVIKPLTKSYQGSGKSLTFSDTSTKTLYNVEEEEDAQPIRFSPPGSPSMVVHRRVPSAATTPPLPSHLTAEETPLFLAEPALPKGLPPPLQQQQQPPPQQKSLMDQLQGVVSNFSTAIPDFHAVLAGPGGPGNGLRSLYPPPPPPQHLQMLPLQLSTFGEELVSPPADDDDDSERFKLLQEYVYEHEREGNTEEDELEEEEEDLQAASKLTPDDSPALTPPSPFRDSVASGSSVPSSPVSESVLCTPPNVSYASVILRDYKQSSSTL
UniProt P23385, 19-1199 limits assumed: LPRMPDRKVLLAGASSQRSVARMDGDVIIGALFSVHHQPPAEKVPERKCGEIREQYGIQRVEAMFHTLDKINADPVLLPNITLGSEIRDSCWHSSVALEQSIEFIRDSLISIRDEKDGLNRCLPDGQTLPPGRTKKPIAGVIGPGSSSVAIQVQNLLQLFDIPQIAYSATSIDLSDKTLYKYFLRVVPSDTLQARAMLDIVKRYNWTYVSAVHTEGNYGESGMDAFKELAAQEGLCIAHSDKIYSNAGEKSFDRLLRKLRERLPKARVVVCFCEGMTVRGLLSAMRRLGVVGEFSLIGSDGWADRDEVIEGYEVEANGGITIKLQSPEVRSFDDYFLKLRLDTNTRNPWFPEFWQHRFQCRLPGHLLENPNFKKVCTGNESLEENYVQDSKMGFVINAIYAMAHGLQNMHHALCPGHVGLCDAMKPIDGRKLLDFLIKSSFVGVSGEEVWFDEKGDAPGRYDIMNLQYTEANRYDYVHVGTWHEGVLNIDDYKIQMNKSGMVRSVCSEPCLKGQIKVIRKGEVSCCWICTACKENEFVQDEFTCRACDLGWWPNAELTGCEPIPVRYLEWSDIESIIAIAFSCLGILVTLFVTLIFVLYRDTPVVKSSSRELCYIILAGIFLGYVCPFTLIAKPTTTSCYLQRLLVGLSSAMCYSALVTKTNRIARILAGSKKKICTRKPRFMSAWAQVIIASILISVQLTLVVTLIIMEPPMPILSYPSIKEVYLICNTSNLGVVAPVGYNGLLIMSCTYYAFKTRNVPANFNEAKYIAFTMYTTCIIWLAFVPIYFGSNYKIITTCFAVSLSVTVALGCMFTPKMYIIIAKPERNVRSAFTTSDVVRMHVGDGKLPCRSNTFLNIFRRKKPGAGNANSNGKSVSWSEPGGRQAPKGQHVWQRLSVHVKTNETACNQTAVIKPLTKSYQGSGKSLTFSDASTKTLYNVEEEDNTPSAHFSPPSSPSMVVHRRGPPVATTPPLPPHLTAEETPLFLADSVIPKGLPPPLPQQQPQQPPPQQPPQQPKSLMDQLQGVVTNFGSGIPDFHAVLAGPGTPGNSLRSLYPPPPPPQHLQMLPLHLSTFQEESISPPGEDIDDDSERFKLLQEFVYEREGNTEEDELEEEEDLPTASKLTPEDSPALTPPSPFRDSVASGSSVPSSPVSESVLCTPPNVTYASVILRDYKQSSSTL
UniProt P31424, 21-1203 limits assumed: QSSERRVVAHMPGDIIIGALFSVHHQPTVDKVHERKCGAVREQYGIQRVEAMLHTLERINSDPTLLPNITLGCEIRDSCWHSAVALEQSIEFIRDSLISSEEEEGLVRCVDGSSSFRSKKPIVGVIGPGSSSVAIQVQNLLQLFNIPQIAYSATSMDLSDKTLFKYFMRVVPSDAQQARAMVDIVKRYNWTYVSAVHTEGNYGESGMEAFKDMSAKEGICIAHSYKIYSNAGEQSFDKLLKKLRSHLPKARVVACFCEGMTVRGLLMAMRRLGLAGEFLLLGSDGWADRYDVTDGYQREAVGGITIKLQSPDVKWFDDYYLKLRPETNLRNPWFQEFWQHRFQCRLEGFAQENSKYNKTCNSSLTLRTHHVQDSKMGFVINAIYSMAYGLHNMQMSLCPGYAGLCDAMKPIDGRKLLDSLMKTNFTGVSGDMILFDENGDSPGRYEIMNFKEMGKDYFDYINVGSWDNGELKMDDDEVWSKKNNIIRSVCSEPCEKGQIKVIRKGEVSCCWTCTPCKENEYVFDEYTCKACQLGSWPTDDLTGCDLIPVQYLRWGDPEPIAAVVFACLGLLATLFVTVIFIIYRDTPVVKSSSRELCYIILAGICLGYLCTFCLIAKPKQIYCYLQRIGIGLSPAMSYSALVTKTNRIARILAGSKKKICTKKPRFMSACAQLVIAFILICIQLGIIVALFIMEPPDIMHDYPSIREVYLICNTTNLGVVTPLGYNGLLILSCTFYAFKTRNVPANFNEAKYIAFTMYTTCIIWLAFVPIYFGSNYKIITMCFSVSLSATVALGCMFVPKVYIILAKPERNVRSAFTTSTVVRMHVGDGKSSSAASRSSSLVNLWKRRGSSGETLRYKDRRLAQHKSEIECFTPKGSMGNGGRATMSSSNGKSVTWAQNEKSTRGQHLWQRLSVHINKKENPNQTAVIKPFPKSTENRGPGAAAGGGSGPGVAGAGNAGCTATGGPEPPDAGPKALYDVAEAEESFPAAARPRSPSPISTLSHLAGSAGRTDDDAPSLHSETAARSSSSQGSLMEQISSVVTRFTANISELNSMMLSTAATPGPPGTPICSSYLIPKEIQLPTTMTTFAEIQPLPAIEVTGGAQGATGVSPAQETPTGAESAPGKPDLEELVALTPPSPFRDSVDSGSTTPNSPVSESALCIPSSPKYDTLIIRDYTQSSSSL
UniProt P41594, 21-1212 limits assumed: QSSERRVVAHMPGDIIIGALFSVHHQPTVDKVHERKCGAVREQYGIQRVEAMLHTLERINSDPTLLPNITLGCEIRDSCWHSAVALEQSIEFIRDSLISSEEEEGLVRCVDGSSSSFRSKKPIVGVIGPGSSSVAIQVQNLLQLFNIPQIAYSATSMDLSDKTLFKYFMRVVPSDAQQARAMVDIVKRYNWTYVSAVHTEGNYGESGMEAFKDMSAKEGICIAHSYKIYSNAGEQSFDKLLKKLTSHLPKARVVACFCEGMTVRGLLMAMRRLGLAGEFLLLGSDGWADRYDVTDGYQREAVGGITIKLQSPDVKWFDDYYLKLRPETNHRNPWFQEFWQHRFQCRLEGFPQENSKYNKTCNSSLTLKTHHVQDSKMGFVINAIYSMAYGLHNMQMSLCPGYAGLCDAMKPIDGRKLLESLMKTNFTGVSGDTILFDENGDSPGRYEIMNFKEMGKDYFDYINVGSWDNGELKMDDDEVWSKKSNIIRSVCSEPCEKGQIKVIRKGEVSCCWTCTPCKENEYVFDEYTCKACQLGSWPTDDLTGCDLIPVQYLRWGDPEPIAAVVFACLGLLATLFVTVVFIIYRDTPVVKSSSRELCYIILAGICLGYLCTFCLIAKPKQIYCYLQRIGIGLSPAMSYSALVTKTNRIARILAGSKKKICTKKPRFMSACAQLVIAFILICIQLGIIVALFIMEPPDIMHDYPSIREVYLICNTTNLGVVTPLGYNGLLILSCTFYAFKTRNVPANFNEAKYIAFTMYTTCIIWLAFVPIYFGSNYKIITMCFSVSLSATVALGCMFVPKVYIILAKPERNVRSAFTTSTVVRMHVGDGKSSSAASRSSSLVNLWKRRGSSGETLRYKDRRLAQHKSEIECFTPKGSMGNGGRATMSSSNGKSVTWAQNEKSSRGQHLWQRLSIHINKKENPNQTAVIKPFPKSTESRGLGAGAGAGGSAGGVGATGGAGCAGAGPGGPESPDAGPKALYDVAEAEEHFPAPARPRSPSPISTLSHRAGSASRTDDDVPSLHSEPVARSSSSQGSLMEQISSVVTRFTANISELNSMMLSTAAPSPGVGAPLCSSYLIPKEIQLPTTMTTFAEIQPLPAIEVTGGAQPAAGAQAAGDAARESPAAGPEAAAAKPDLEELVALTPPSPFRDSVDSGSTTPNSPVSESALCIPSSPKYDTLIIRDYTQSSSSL

How the values were obtained:
mGluR1 [1] = biological target: mGluR1 (Homo sapiens, UniProt Q13255); conditions: mGluR1, Sp. Hs; tested as the radiolabelled form; cited from earlier work
mGluR1 [2] = biological target: mGluR1 (Rattus norvegicus, UniProt P23385); conditions: mGluR1, Sp. Rn; tested as the radiolabelled form; cited from earlier work
mGluR5 [3] = biological target: mGluR5 (Rattus norvegicus, UniProt P31424); conditions: mGluR5, Sp. Rn; tested as the radiolabelled form; cited from earlier work
mGluR5 [4] = biological target: mGluR5 (Homo sapiens, UniProt P41594); conditions: mGluR5, Sp. Hs; tested as the radiolabelled form; cited from earlier work

In the case of `O=C(Cc1ccccc1)c1ccc2nc3c(cc2c1)CCCO3` [R214127], the “Affinity (pKd)” value (mGluR1 [1]) is listed as 9 pKd.
For `CCn1c(C)nc(N2CCc3ccccc3CC2)c(C#N)c1=O` [EM-TBPC], the “Affinity (pKd)” value (mGluR1 [2]) is given as 8.2 pKd.
For `CN1CC(=O)N=C1NC(=O)Nc1cccc(Cl)c1`, the “Affinity (pKd)” value (mGluR5 [3]) is given as 7.3 pKd and the “Affinity (pKd)” value (mGluR5 [4]) is given as 7.5 pKd.
